Where a name gives a salt, the structure may show the parent alone.
Key:
[1] = test system: abcC13; assay: DT1 microarray drug screening, drug-treated HepG2: abcC13; assay type: cell-based, human; conditions: HepG2, vinblastine sulfate 25 nM, standard 24
Description: (§1) The labelled cDNA target preparation was thawed and the 150 μl added to 850 ul hybridisation buffer (500 mM sodium Phosphate pH 6.0, 1% SDS, 1% BSA, 1 mM EDTA) in a 1.5 ml microtube and heated at 95° C. for 10 min.

[2] = test system: abcA12; assay: DT1 microarray drug screening, drug-treated HepG2: abcA12; assay type: cell-based, human; conditions: HepG2, vinblastine sulfate 25 nM, standard 24
Description: as §1

[3] = test system: abcE1; assay: DT1 microarray drug screening, drug-treated HepG2: abcE1; assay type: cell-based, human; conditions: HepG2, vinblastine sulfate 25 nM, standard 24
Description: as §1

[4] = test system: abcA7; assay: DT1 microarray drug screening, drug-treated HepG2: abcA7; assay type: cell-based, human; conditions: HepG2, vinblastine sulfate 25 nM, standard 24
Description: as §1

[5] = test system: abcC9; assay: DT1 microarray drug screening, drug-treated HepG2: abcC9; assay type: cell-based, human; conditions: HepG2, vinblastine sulfate 25 nM, standard 24
Description: as §1

[6] = test system: abcG1; assay: DT1 microarray drug screening, drug-treated HepG2: abcG1; assay type: cell-based, human; conditions: HepG2, vinblastine sulfate 25 nM, standard 24
Description: as §1

[7] = test system: abcD3; assay: DT1 microarray drug screening, drug-treated HepG2: abcD3; assay type: cell-based, human; conditions: HepG2, vinblastine sulfate 25 nM, standard 24
Description: as §1

[8] = test system: abcC7; assay: DT1 microarray drug screening, drug-treated HepG2: abcC7; assay type: cell-based, human; conditions: HepG2, vinblastine sulfate 25 nM, standard 24
Description: as §1

[9] = test system: abcC11; assay: DT1 microarray drug screening, drug-treated HepG2: abcC11; assay type: cell-based, human; conditions: HepG2, vinblastine sulfate 25 nM, standard 24
Description: as §1

[10] = test system: abcG2; assay: DT1 microarray drug screening, drug-treated HepG2: abcG2; assay type: cell-based, human; conditions: HepG2, vinblastine sulfate 25 nM, standard 24
Description: as §1

[11] = test system: abcB9; assay: DT1 microarray drug screening, drug-treated HepG2: abcB9; assay type: cell-based, human; conditions: HepG2, vinblastine sulfate 25 nM, standard 24
Description: as §1

[12] = test system: abcB1; assay: DT1 microarray drug screening, drug-treated HepG2: abcB1; assay type: cell-based, human; conditions: HepG2, vinblastine sulfate 25 nM, standard 24
Description: as §1

[13] = test system: abcF2; assay: DT1 microarray drug screening, drug-treated HepG2: abcF2; assay type: cell-based, human; conditions: HepG2, vinblastine sulfate 25 nM, standard 24
Description: as §1

[14] = test system: abcF3; assay: DT1 microarray drug screening, drug-treated HepG2: abcF3; assay type: cell-based, human; conditions: HepG2, vinblastine sulfate 25 nM, standard 24
Description: as §1

[15] = test system: abcA5; assay: DT1 microarray drug screening, drug-treated HepG2: abcA5; assay type: cell-based, human; conditions: HepG2, vinblastine sulfate 25 nM, standard 24
Description: as §1

[16] = test system: abcC1; assay: DT1 microarray drug screening, drug-treated HepG2: abcC1; conditions: HepG2, vinblastine sulfate 25 nM, standard 24
[17] = test system: abcG4; assay: DT1 microarray drug screening, drug-treated HepG2: abcG4; assay type: cell-based, human; conditions: HepG2, vinblastine sulfate 25 nM, standard 24
Description: as §1

[18] = test system: abcD2; assay: DT1 microarray drug screening, drug-treated HepG2: abcD2; assay type: cell-based, human; conditions: HepG2, vinblastine sulfate 25 nM, standard 24
Description: as §1

[19] = test system: abcA3; assay: DT1 microarray drug screening, drug-treated HepG2: abcA3; assay type: cell-based, human; conditions: HepG2, vinblastine sulfate 25 nM, standard 24
Description: as §1

[20] = test system: abcA10; assay: DT1 microarray drug screening, drug-treated HepG2: abcA10; assay type: cell-based, human; conditions: HepG2, vinblastine sulfate 25 nM, standard 24
Description: as §1

[21] = test system: abcG8; assay: DT1 microarray drug screening, drug-treated HepG2: abcG8; assay type: cell-based, human; conditions: HepG2, vinblastine sulfate 25 nM, standard 24
Description: as §1

[22] = test system: abcC12; assay: DT1 microarray drug screening, drug-treated HepG2: abcC12; assay type: cell-based, human; conditions: HepG2, vinblastine sulfate 25 nM, standard 24
Description: as §1

[23] = test system: abcA6; assay: DT1 microarray drug screening, drug-treated HepG2: abcA6; assay type: cell-based, human; conditions: HepG2, vinblastine sulfate 25 nM, standard 24
Description: as §1

[24] = test system: abcB4; assay: DT1 microarray drug screening, drug-treated HepG2: abcB4; assay type: cell-based, human; conditions: HepG2, vinblastine sulfate 25 nM, 2 h, standard 24
Description: as §1

## CC[C@]1(O)C[C@@H]2CN(CCc3c([nH]c4ccccc34)[C@@](C(=O)OC)(c3cc4c(cc3OC)N(C)[C@H]3[C@@](O)(C(=O)OC)[C@H](OC(C)=O)[C@]5(CC)C=CCN6CC[C@]43[C@@H]65)C2)C1 [vin, vinblastine sulfate]
[1]; 2 h
  relative level of abcC13 gene expression: 9.551
[1]; 4 h
  relative level of abcC13 gene expression: 8.964
[1]; 8 h
  relative level of abcC13 gene expression: 7.491
[2]; 2 h
  relative level of abcA12 gene expression: 8.474
[2]; 4 h
  relative level of abcA12 gene expression: 6.774
[2]; 8 h
  relative level of abcA12 gene expression: 8.089
[3]; 2 h
  relative level of abcE1 gene expression: 6.428
[3]; 4 h
  relative level of abcE1 gene expression: 6.815
[3]; 8 h
  relative level of abcE1 gene expression: 7.531
[4]; 2 h
  relative level of abcA7 gene expression: 2.265
[4]; 4 h
  relative level of abcA7 gene expression: 1.808
[4]; 8 h
  relative level of abcA7 gene expression: 3.135
[5]; 2 h
  relative level of abcC9 gene expression: 9.88
[5]; 4 h
  relative level of abcC9 gene expression: 9.014
[5]; 8 h
  relative level of abcC9 gene expression: 9.735
[6]; 2 h
  relative level of abcG1 gene expression: 9.753
[6]; 4 h
  relative level of abcG1 gene expression: 8.364
[6]; 8 h
  relative level of abcG1 gene expression: 8.727
[7]; 2 h
  relative level of abcD3 gene expression: 5.918
[7]; 4 h
  relative level of abcD3 gene expression: 5.802
[7]; 8 h
  relative level of abcD3 gene expression: 5.647
[8]; 2 h
  relative level of abcC7 gene expression: 13.78
[8]; 4 h
  relative level of abcC7 gene expression: 13.43
[8]; 8 h
  relative level of abcC7 gene expression: 16.12
[9]; 2 h
  relative level of abcC11 gene expression: 9.016
[9]; 4 h
  relative level of abcC11 gene expression: 7.821
[9]; 8 h
  relative level of abcC11 gene expression: 11.1
[10]; 2 h
  relative level of abcG2 gene expression: 6.442
[10]; 4 h
  relative level of abcG2 gene expression: 5.659
[10]; 8 h
  relative level of abcG2 gene expression: 6.037
[11]; 2 h
  relative level of abcB9 gene expression: 12.62
[11]; 4 h
  relative level of abcB9 gene expression: 12.28
[11]; 8 h
  relative level of abcB9 gene expression: 12.23
[12]; 2 h
  relative level of abcB1 gene expression: 12.12
[12]; 4 h
  relative level of abcB1 gene expression: 9.658
[12]; 8 h
  relative level of abcB1 gene expression: 11.52
[13]; 2 h
  relative level of abcF2 gene expression: 9.21
[13]; 4 h
  relative level of abcF2 gene expression: 8.646
[13]; 8 h
  relative level of abcF2 gene expression: 9.398
[14]; 2 h
  relative level of abcF3 gene expression: 8.976
[14]; 4 h
  relative level of abcF3 gene expression: 7.82
[14]; 8 h
  relative level of abcF3 gene expression: 8.133
[15]; 2 h
  relative level of abcA5 gene expression: 7.895
[15]; 4 h
  relative level of abcA5 gene expression: 6.137
[15]; 8 h
  relative level of abcA5 gene expression: 8.642
[16]; 2 h
  relative level of abcC1 gene expression: 16.22
[16]; 4 h
  relative level of abcC1 gene expression: 15.1016
[16]; 8 h
  relative level of abcC1 gene expression: 12.69
[17]; 2 h
  relative level of abcG4 gene expression: 12.5
[17]; 4 h
  relative level of abcG4 gene expression: 13.2242
[17]; 8 h
  relative level of abcG4 gene expression: 9.999
[18]; 2 h
  relative level of abcD2 gene expression: 6.669
[18]; 4 h
  relative level of abcD2 gene expression: 6.512
[18]; 8 h
  relative level of abcD2 gene expression: 5.888
[19]; 2 h
  relative level of abcA3 gene expression: 10.83
[19]; 4 h
  relative level of abcA3 gene expression: 9.241
[19]; 8 h
  relative level of abcA3 gene expression: 14.94
[20]; 2 h
  relative level of abcA10 gene expression: 10.28
[20]; 4 h
  relative level of abcA10 gene expression: 8.659
[20]; 8 h
  relative level of abcA10 gene expression: 10.5
[21]; 2 h
  relative level of abcG8 gene expression: 9.699
[21]; 4 h
  relative level of abcG8 gene expression: 8.751
[21]; 8 h
  relative level of abcG8 gene expression: 7.316
[22]; 2 h
  relative level of abcC12 gene expression: 8.047
[22]; 4 h
  relative level of abcC12 gene expression: 7.567
[22]; 8 h
  relative level of abcC12 gene expression: 8.523
[23]; 2 h
  relative level of abcA6 gene expression: 9.9
[23]; 4 h
  relative level of abcA6 gene expression: 7.85
[23]; 8 h
  relative level of abcA6 gene expression: 14.54
[24]
  relative level of abcB4 gene expression: 16.19
